In general, IC50 refers to the concentration that inhibits the measured activity by half. Read a low IC50 as greater potency in that assay.

Sequences of proteins named here, by UniProt entry; tags and fusion partners are left off.
UniProt P08908, whole entry: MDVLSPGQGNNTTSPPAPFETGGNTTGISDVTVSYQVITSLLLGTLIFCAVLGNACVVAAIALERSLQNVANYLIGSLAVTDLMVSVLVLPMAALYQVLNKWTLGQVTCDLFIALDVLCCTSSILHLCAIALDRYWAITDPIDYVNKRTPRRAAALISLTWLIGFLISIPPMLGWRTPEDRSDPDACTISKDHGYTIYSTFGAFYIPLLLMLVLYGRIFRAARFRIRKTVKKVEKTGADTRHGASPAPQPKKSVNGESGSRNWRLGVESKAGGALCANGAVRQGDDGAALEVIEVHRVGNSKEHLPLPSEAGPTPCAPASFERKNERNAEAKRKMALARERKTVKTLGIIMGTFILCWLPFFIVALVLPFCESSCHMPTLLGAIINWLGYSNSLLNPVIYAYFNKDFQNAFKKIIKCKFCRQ
UniProt P14842, whole entry: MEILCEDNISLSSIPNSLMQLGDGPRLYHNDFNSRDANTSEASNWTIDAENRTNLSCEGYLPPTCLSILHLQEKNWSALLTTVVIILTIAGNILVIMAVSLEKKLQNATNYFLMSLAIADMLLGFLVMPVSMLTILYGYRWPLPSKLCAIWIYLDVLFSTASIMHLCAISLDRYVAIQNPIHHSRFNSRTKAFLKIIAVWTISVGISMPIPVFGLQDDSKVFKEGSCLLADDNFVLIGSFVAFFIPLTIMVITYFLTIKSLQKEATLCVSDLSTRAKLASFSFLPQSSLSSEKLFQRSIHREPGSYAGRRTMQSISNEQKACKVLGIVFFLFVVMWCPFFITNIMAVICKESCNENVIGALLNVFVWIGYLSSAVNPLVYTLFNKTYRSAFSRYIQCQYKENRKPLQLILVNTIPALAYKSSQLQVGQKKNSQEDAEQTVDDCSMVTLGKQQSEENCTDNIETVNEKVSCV

These results are taken from BindingDB's records for doi:10.7270/Q2SX6GDH (n/a, 1996).

For test [1], the target named is 5-hydroxytryptamine receptor 1A (Homo sapiens, UniProt P08908). The test can be described thus: ChEBML_1074. As for the experimental part:
Compound was tested for its ability to displace [3H]8-OH-DPAT from 5-hydroxytryptamine 1A receptor in pig cortex

Test [2] concerns the target 5-hydroxytryptamine receptor 2A (Rattus norvegicus, UniProt P14842). The test can be described thus: ChEBML_2582. As for the experimental part:
Compound was tested for its ability to displace [3H]DOB from 5-hydroxytryptamine 2A receptor in rat cortex homogenates

For the compound `CNS(=O)(=O)Cc1ccc2[nH]cc(CCN(C)C)c2c1` [Sumax], the 50% inhibitory concentration (IC50) in test [1] was 540 nM; in test [2], over 10000 nM.
